This is a selection; strong and weak results do not stand in their true shares. Records with an inconclusive call do not appear. Some salts and complexes are drawn in separate pieces, as the source files them; their charges need not balance. The source made the active and inactive calls. Calls follow the shape of the dose curve; as a rule, active = well fitted inhibition curve with a large enough effect; inconclusive = small, poorly fitted or top-dose-only effect, or effect the other way; inactive = flat fitted curve, though single readings scatter.

activity, negative = inhibition data for 55 molecules are collected here from PubChem BioAssay AID2546 (National Center for Advancing Translational Sciences (NCATS), 2010).
% is scaled to controls: 0 for no effect and ±100 for the full control effect.

The assay is described as follows: VP16 counterscreen qHTS for inhibitors of ROR gamma transcriptional activity.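 Also: Gal4-VP16 expression switched on by copper sulfate through the metallothionein promoter; nearly all actives have a fitted effect of over 50% in size.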 Particulars: Drosophila S2 Gal4-VP16 UAS-luciferase, luminescence, 20 h; at 53.6 µM (top of the series) unless noted.
As to `CCCOc1ccc(C(=O)NCC2(N(C)C)CCCCC2)cc1OC`, the activity, negative = inhibition is inactive: 19.1%. In the case of `O=C(OC1CN2CCC1CC2)c1ccc([N+](=O)[O-])cc1` (stereo not given) it was inactive: 8.6%; in that of `COc1ccc2c(c1O)-c1c(O)c(OC)cc3c1[C@H](C2)[N+](C)(C)CC3.O=[N+]([O-])c1cc([N+](=O)[O-])c([O-])c([N+](=O)[O-])c1[O-]`, inactive: -6.36%; in that of `COc1cc(OC)c(C(=O)NCC2(N(C)C)CCCCC2)cc1OC`, inactive: -8.68%.

In the case of `CCOP(=O)(Cl)Cl`, the activity, negative = inhibition is inactive: 5.45%. To `COc1ccc(CN(CCCl)CCCl)cc1Cl` belongs inactive: -4.7%. To `CN(C)c1cccc(C(=O)NCC2(N3CCCCC3)CCCCC2)c1` belongs inactive: -5.93%. To `O=[N+]([O-])c1cc([N+](=O)[O-])c(OC2CCCCC2O)c([N+](=O)[O-])c1` (stereo not given) belongs inactive: 1.63%; to `O=C(NCC1(N2CCOCC2)CCCCC1)c1cc(=O)[nH]c2ccccc12`, inactive: 4.82%.

As for `COc1cc(C(=O)NCC2(N3CCCCC3)CCCCC2)ccc1OC(F)F`, the activity, negative = inhibition was inactive: -0.519%. To `CN1CCN(CCOC(=O)C(O)(c2ccccc2)c2ccccc2)CC1` belongs inactive: 1.33%; to `O=C(NCC1(N2CCCCC2)CCCCC1)c1cccc(C(F)(F)F)c1`, inactive: -1.47%. To `N#CC1(Nc2ccccc2)CCN(CCc2ccccc2)CC1` belongs inactive: -3.8%; to `O=C(NCC1(N2CCCCC2)CCCCC1)c1cccc([N+](=O)[O-])c1`, inactive: -2.6%. To `O=C(NCC1(N2CCCCC2)CCCCC1)c1ccc(OC(F)F)cc1` belongs inactive: 0.256%; to `COc1cc(C(=O)NCC2(N(C)C)CCCCC2)ccc1OC(F)F`, inactive: 2.29%. For the molecule `O=C(NCC1(N2CCCCC2)CCCCC1)c1ccc(F)cc1`, the activity, negative = inhibition was inactive: -2.19%.

`CCOC(=O)N1CCC(Nc2ccc(F)cc2)CC1`: the activity, negative = inhibition is inactive: -5.02%. Turning to `COc1ccc(NC2CCN(CCc3ccccc3)CC2)c(OC)c1`, the activity, negative = inhibition was inactive: 1.8%. To `CCOc1ccc(C)cc1CN(CCCl)CCCl` belongs inactive: -3.01%. To `N#CC1(Nc2ccccc2)CCN(Cc2ccccc2)CC1` belongs inactive: -4.76%; to `O=C(OC1CN2CCC1CC2)C1c2ccccc2Oc2ccccc21` (stereo not given), inactive: -1.28%; to `CCOC(=O)N1CCC(Nc2ccc(OC)cc2)CC1`, inactive: 29.3%. Consider `Cc1cc(C)cc(N(C(=O)c2ccccc2)C2CCN(C(=O)OC(C)(C)C)CC2)c1`, for which the activity, negative = inhibition was inactive: -0.115%. In the case of `O=C(NCC1(N2CCOCC2)CCCCC1)c1cc2ccccc2o1` it was inactive: 14.3%; in that of `CSc1ccccc1C(=O)NCC1(N2CCCCC2)CCCCC1`, inactive: -23.4%; in that of `COc1ccc(C(=O)NCC2(N3CCCCC3)CCCCC2)cc1`, inactive: -22.7%. In the case of `CC(C)(C)OC(=O)N1CCC(N(C(=O)c2ccccc2)c2ccc(F)cc2)CC1` it was inactive: -0.0663%; in that of `COc1ccc(C(=O)NCC2(N3CCCCC3)CCCCC2)c(OC)c1OC`, inactive: -9.37%; in that of `O=C(NCC1(N2CCCCC2)CCCCC1)c1ccc(=O)[nH]c1`, inactive: 2.47%. To `CCCOc1ccc(C)cc1CN(CCCl)CCCl` belongs inactive: -5.36%. `COc1cccc(C(=O)N(c2cc(C)cc(C)c2)C2CCN(C(=O)OC(C)(C)C)CC2)c1`: the activity, negative = inhibition was inactive: -1.46%. As to `COc1cc(OC)cc(C(=O)NCC2(N3CCOCC3)CCCCC2)c1`, the activity, negative = inhibition is inactive: -0.545%. To `CCC(CO)(C(=O)OC1CN2CCC1CC2)c1ccccc1` (stereo not given) belongs inactive: -2.25%; to `CC(C)(C)OC(=O)N1CCC(Nc2ccccc2)CC1`, inactive: 14.5%.

In the case of `O=C(O)C1(Nc2ccccc2)CCN(Cc2ccccc2)CC1`, the activity, negative = inhibition was inactive: -13.2%. To `CCCOc1ccc(C(=O)NCC2(N(C)C)CCCCC2)cc1` belongs inactive: 7.66%. In the case of `CCOc1ncccc1C(=O)NCC1(N2CCOCC2)CCCCC1` it was inactive: -0.738%; in that of `CN1CCC(Nc2ccc(F)c(Cl)c2)CC1`, inactive: -3.84%. In the case of `CN(C)c1ccc(C(=O)NCC2(N3CCCCC3)CCCCC2)cc1` it was inactive: -4.27%; in that of `CCN1CCC(Nc2cccc(F)c2)CC1`, inactive: -6.42%; in that of `Fc1ccccc1NC1CCN(Cc2ccccc2)CC1`, inactive: 1.63%. In the case of `COc1cc(OC)cc(C(=O)NCC2(N3CCCCC3)CCCCC2)c1`, the activity, negative = inhibition was inactive: 7.13%. To `ClCCOP(OCCCl)OCCCl` belongs inactive: -5.45%. To `CN(C)C1(CNC(=O)c2cccc(C#N)c2)CCCCC1` belongs inactive: -8.66%. In the case of `c1ccc(CN2CCC(Nc3ccccc3)CC2)cc1` it was inactive: -1.2%; in that of `CCCN1CCC(Nc2cc(OC)cc(OC)c2)CC1`, inactive: 4.34%. As for `CCOC(=O)C(CC)C1=NC(C)(C)Cc2ccccc21.O=[N+]([O-])c1cc([N+](=O)[O-])c(O)c([N+](=O)[O-])c1` (stereo not given), the activity, negative = inhibition is inactive: -6.74%. For the molecule `N#Cc1ccc(C(=O)NCC2(N3CCCCC3)CCCCC2)cc1`, the activity, negative = inhibition is inactive: -7.69%. In the case of `CC(C)(C)OC(=O)N1CCC(N(C(=O)c2ccccc2)c2ccc(Cl)cc2)CC1` it was inactive: -1.24%; in that of `O=C(OC1CN2CCC1CC2)C1c2ccccc2C=Cc2ccccc21` (stereo not given), inactive: -0.326%; in that of `O=C(O)c1cccc(Nc2c([N+](=O)[O-])cc([N+](=O)[O-])cc2[N+](=O)[O-])c1`, inactive: 3.87%. In the case of `CCOC(=O)N1CCC(Nc2ccc(C)cc2)CC1` it was inactive: 12.4%; in that of `N/C(=N\O)c1c(N)no[n+]1[O-]`, inactive: 1%; in that of `COc1ccc(C(=O)NCC2(N3CCOCC3)CCCCC2)cc1OC`, inactive: -9.64% [at 10 µM].
